# Binding of CDR-mutated scFvs to a peptide of the spike HR2 region

From the AlphaSeq antibody data of Engelhart et al. 2022 (doi:10.1038/s41597-022-01779-4), copy in the FLAb collection.

Target peptide (SARS-CoV-2 spike, HR2 region): PDVDLGDISGINAS

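Library AAYL49 holds single substitutions and randomly drawn double and triple substitutions in the CDRs. AlphaSeq pools MATa yeast showing the antibodies with MATalpha yeast showing the peptide. Mating (16 h, 30 °C) was followed by selection of diploids and sequencing of their barcodes. Each replicate has its own calibration line, from reference interactions of the BCL2 family. Mating was done three times.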

Ab-14 is the parent antibody, in scFv form: VH, then a 15-residue (Gly4Ser)3 linker, then VL. The light chain is unchanged in all variants.
VH: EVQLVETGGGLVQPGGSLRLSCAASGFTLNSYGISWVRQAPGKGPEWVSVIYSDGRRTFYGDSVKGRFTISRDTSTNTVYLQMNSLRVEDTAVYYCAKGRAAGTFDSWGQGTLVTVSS
VL: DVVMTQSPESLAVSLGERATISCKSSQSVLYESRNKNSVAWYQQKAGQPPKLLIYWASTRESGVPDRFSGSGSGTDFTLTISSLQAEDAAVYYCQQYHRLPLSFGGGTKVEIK

The parent's heavy chain CDRs are GFTLNSYGIS, VIYSDGRRTFYGDSVK, GRAAGTFDS; each variant's own CDRs replace them letter for letter.
All variants listed here change G26 of the VH, counted from its first residue.
The read-out is the apparent dissociation constant on a log10 scale (nM): the lower, the stronger.
The mean shown is taken over the replicates in which the pair was detected.
"nd" means that the variant was in the library but no mating with the target was seen in that replicate; the authors take this as a sign of poor binding, and no number exists.

The variant TFTLNSYGIS | VIYSWGRRTFYGDSVK | GRAAGTHDS gave nd, nd, nd. With CFTLNSYGIS | AIYSDGRRTFYGDHVK | GRAAGTFDS the result was nd, nd, nd. For PFTLNSYGIK | VIYSDGRRTFYGLSVK | GRAAGTFDS, the assay gave nd, 4.99, 5.00 (mean 5.00). With RITLNSYGIS | VIYSDGRRTFYGDSVK | GRAAMTFDS the result was nd, nd, nd. With RFTYNSYGIS | VIYSGGRRTFYGDSVK | GRAAGTFDS the result was nd, nd, nd. For AFTLNSYGIS | VIASDGRRTFYGDSVE | GRAAGTFDS, the assay gave nd, nd, 5.00. The variant EFSLNSYGCS | VIYSDGRRTFYGDSVK | GRAAGTFDS gave nd, nd, nd.

The variant HFRLNSYGIK | VIYSDGRRTFYGDSVK | GRAAGTFDS gave nd, 4.68, nd. With DFTLNSYGIS | VSYSDGRRTFYGDSVK | GRAAGTHDS the result was nd, 3.23, nd. The variant MFHLNSNGIS | VIYSDGRRTFYGDSVK | GRAAGTFDS showed nd, nd, nd. The variant HETLNSYGIS | VIYSAGRRTFYGDSVK | GRAAGTFDS gave nd, 3.58, nd. The variant QFTLNSYGIS | VIYSDGRRTFYGDSVK | GRAAGRFDS showed 3.26, 4.80, 3.88 (mean 3.98). The variant QFTLNSYGIS | VIYSDGRRTRYGDSVK | GRAAGAFDS showed 3.83, nd, nd. The variant QFTLNSYGIS | VIYSDGFRTFYGDSVK | GRAAQTFDS gave nd, nd, nd.

The variant AFTLKSYGIS | VIYSDGRRTFVGDSVK | GRAAGTFDS gave 2.40, nd, 1.95 (mean 2.18). For TFTLASYGIK | VIYSDGRRTFYGDSVK | GRAAGTFDS, the assay gave nd, nd, nd. For WFTLNSYGIS | VIYSDMRRTFYGDSVK | GRALGTFDS, the assay gave 3.63, 3.29, 3.81 (mean 3.58). The variant VFTLNSYGIS | NIYSDGRRTFYPDSVK | GRAAGTFDS gave 4.22, 4.81, 4.39 (mean 4.47). The variant KFTLNSYGIS | VIYSDGRRTFYGDSVK | ERAAGTFDS showed nd, nd, nd. With QFTLNSYGIS | VIGSDGRRTFYGDSVK | GRAAGTFCS the result was nd, nd, nd. With MFTLNSYGIS | VIYSDGRRTCYKDSVK | GRAAGTFDS the result was nd, nd, 4.49.

The variant FFTLNSYGIS | VIYSDKRITFYGDSVK | GRAAGTFDS gave nd, nd, nd. For PFTLNGHGIS | VIYSDGRRTFYGDSVK | GRAAGTFDS, the assay gave 1.78, 1.30, 1.17 (mean 1.42). For DFTWNSYGIS | VIYSDGRRTFYGESVK | GRAAGTFDS, the assay gave nd, nd, nd. The variant SFTLNSYGIS | VIYELGRRTFYGDSVK | GRAAGTFDS gave nd, nd, nd. For SFTLNSYGIS | VEYSDGRRTFYGDSVK | GRALGTFDS, the assay gave nd, nd, nd. For VFTLNSYGIS | CIYSDGRYTFYGDSVK | GRAAGTFDS, the assay gave nd, 4.15, 5.60 (mean 4.87). The variant NETLNSYGIS | VKYSDGRRTFYGDSVK | GRAAGTFDS showed nd, nd, nd.

For PFTLNSYTIS | VIYSDGRRTFYGDSVK | GRAAGTDDS, the assay gave 4.72, 3.69, nd (mean 4.20). The variant FFTLDSYGIS | VIYSDGRRTFYGDSLK | GRAAGTFDS showed 4.44, 3.72, 6.17 (mean 4.78). With HFTLNSYGIS | VIYSDGRTTFYGDSVK | GRAAGTFDP the result was nd, nd, nd. With WFTLGSYGIS | VIYQDGRRTFYGDSVK | GRAAGTFDS the result was 2.39, 2.99, 3.43 (mean 2.94). For PFTLNSYGIS | VIYSDGRRTFYGDSVK | NRAAGTFDT, the assay gave nd, nd, 5.36. The variant AFTLNSYGIS | VIYSDGRTYFYGDSVK | GRAAGTFDS showed 2.39, 4.64, nd (mean 3.51). The variant SFTLNSYGIS | VIYSDGRRTFYGDSVK | GRAAGTFDS showed 1.01, 1.11, 1.02 (mean 1.05).

The variant WFTLNSYGIS | VIYSDGSATFYGDSVK | GRAAGTFDS showed nd, 4.88, nd. For TFTLNSYGIS | VIYSDGRGTFYGDSVK | GRAAGTFDQ, the assay gave nd, nd, nd. With CFTLNRYGIS | VIYSDGRRTFYGDSVK | GRAAGTRDS the result was nd, nd, nd. The variant WFTLNMYGIS | VIYSDGRRTFYGDSDK | GRAAGTFDS gave 4.97, 5.06, nd (mean 5.02). The variant VFTLNSYGIS | VIYSDLRRTFYGDSVK | WRAAGTFDS showed nd, nd, nd. For KFTLNSYFIS | VIYSDGRRTFYGDSVK | GRAAGTFDQ, the assay gave nd, nd, nd. With FFTLNSYGIS | VIYSDGRRTFYDDSVK | GRAAGTIDS the result was 4.98, 3.81, nd (mean 4.39).

With IFTLNSYGIS | VIYSDGRRTFYGDSVK | GRAAGRFFS the result was nd, 3.29, 5.00 (mean 4.15). The variant KFTLNSYGIS | VIYSDGRRFFYGKSVK | GRAAGTFDS gave 5.63, 4.66, nd (mean 5.14). The variant PFTLNSYRIS | VIYSDGRRTFKGDSVK | GRAAGTFDS showed 3.49, nd, nd.

For reference, 5 entries of the list once more:

| CDR-H1 | CDR-H2 | CDR-H3 | log10 Kd, replicates | mean, log10 nM |
|---|---|---|---|---|
| SFTLNSYGIS | VEYSDGRRTFYGDSVK | GRALGTFDS | nd, nd, nd | nd |
| QFTLNSYGIS | VIYSDGFRTFYGDSVK | GRAAQTFDS | nd, nd, nd | nd |
| KFTLNSYGIS | VIYSDGRRFFYGKSVK | GRAAGTFDS | 5.63, 4.66, nd | 5.14 |
| RITLNSYGIS | VIYSDGRRTFYGDSVK | GRAAMTFDS | nd, nd, nd | nd |
| NETLNSYGIS | VKYSDGRRTFYGDSVK | GRAAGTFDS | nd, nd, nd | nd |

Empty control strains, which show no peptide, gave a signal in 15% of pairings with library AAYL49; the median was 4.06 and 95% of these signals were weaker than 2.83. No background was subtracted.